Test results: patent US12409179B2, “Pharmaceutical combination of pimozide and methotrexate and use thereof” (GENEROS BIOPHARMA LTD., priority 2019, dated 2025)

Assays:
[1] = system: adjuvant-induced arthritis in rats; assay: Embodiment 3: oral Nib1 and methotrexate in adjuvant-induced arthritis in rats (joint score, paw volume, AUC); set-up: species or system Lewis rat; details: rat, in vivo
[2] = system: Lewis rat adjuvant-induced arthritis model; assay: Embodiment 1: oral Nib1 and injected methotrexate in Lewis rat adjuvant-induced arthritis model (joint score, paw volume, AUC); type: in vivo

With `CN(Cc1cnc2nc(N)nc(N)c2n1)c1ccc(C(=O)N[C@@H](CCC(=O)O)C(=O)O)cc1` [MTX, Methotrexate] the “effect on ΔAUC of paw volume relative to the vehicle group / synergistic effect” value [1] was “not significant”, the “paw volume AUC relative to vehicle group, as fraction” value ([2]; Embodiment 1, methotrexate 0.5 mg/kg intraperitoneal, Nib1 10 mg/kg oral) was 0.607 and the “the therapeutic effects compared with vehicle group (paw volume x time AUC %)” value ([2]; rat, in vivo) was 60.7%.
